Assay results from patent publication US9757471B2, “Protozoan variant-specific surface proteins (VSP) as carriers for oral drug delivery” (priority 2012, dated 2017).

System: trypsin
Conditions: combined with VSP carrier at 1:3 glucagon to VSP ratio

CSCC[C@H](NC(=O)[C@H](CC(C)C)NC(=O)[C@H](Cc1c[nH]c2ccccc12)NC(=O)[C@H](CCC(N)=O)NC(=O)[C@@H](NC(=O)[C@H](Cc1ccccc1)NC(=O)[C@H](CC(=O)O)NC(=O)[C@H](CCC(N)=O)NC(=O)[C@H](C)NC(=O)[C@H](CCCN=C(N)N)NC(=O)[C@H](CCCN=C(N)N)NC(=O)[C@H](CO)NC(=O)[C@H](CC(=O)O)NC(=O)[C@H](CC(C)C)NC(=O)[C@H](Cc1ccc(O)cc1)NC(=O)[C@H](CCCCN)NC(=O)[C@H](CO)NC(=O)[C@H](Cc1ccc(O)cc1)NC(=O)[C@H](CC(=O)O)NC(=O)[C@H](CO)NC(=O)[C@@H](NC(=O)[C@H](Cc1ccccc1)NC(=O)[C@@H](NC(=O)CNC(=O)[C@H](CCC(N)=O)NC(=O)[C@H](CO)NC(=O)[C@@H](N)Cc1c[nH]cn1)[C@@H](C)O)[C@@H](C)O)C(C)C)C(=O)N[C@@H](CC(N)=O)C(=O)N[C@H](C(=O)O)[C@@H](C)O [glucagon]
resistance of glucagon to trypsin proteolysis: increased the resistance; also recorded: protects glucagon from trypsin degradation

“Also recorded” adds a separate entry of the source.
